Yeast mating assay B: variants of the scFv Ab-14

Reference: Li et al. 2023, doi:10.1038/s41467-023-39022-2. File: FLAb, binding data.

Target peptide (SARS-CoV-2 spike, HR2 region): PDVDLGDISGINAS

The variants keep the heavy chain, the linker and the frameworks of Ab-14 (scFv order VH, a 15-residue (Gly4Ser)3 linker, VL).
VH: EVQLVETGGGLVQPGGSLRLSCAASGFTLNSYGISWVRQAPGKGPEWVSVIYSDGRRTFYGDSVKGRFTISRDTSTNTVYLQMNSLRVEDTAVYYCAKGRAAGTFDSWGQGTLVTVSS
VL: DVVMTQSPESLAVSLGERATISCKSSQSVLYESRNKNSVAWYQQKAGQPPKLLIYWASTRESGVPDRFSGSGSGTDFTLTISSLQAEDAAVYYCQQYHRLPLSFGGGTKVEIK

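Phage display of a naive human antibody library on the peptide gave the parent. This is the validation round: designs drawn from the data on random variants, tested in the same kind of assay. Their group label is 14L_GP_HC (GP: Gaussian process model; HC: hill climbing; a sequence that several methods proposed may carry one label only). Affinity was read by AlphaSeq, a pooled yeast mating assay with surface-displayed partners. Binding brings cells together so that they mate, and sequencing counts the barcode pairs among the diploids. Read counts were normalised to the haploid input and turned into Kd by a linear fit to BCL2-family pairs of known affinity, for each replicate. Mating was done six times.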

Variants are written as CDR1, CDR2 and CDR3 of the light chain (limits as in the source). Parent: KSSQSVLYESRNKNSVA, WASTRES, QQYHRLPLS. The read-out is the apparent dissociation constant on a log10 scale (nM): the lower, the stronger. A mean of the replicates is given; it leaves out those without a signal. A pair that was not seen in that replicate is written "nd"; this usually means weak binding, but a binder can also be missed. As a blank, each scFv also met three strains without target: over all light chain designs, 4% of these pairings were detected, typically at 2.64 and seldom below 1.59. The control count says in how many pairings with the empty strains this scFv gave a signal, with their mean in brackets.

CDR-L1 | CDR-L2 | CDR-L3 | replicates, log10 nM | log10 Kd (nM), mean | control signals
HSSQSELYESRNKNSVA | NASTRMS | QQYHRLPLS | 0.49 / 0.82 / 0.27 / 0.43 / 0.36 / 0.28 | 0.44 | 0/18
KMSQSWLYESRNKNSVA | GASAREV | QQYHRLPLS | 0.02 / 0.01 / -0.27 / -0.28 / -0.28 / -0.08 | -0.15 | 0/18
HSSPSTLYESRNKNSVA | NASTREE | QQYHRLPLS | 0.75 / 0.35 / 0.50 / 0.50 / 0.33 / 0.50 | 0.49 | 1/18 (2.77)
KVSQSVLYESMNKNSVA | EASTRES | QQYHRLPLS | 0.60 / 0.76 / 0.18 / 0.72 / 0.61 / 0.39 | 0.54 | 1/18 (4.50)
KSSMSVLYESHNKNSVA | NASTRMS | QQYHRLPLS | 0.89 / 0.66 / 0.92 / 0.75 / 0.67 / 0.60 | 0.75 | 2/18 (2.79)
KVSQSVLYESGTKNSVA | NASVRES | QQYHRLPLS | 1.02 / 0.88 / 0.53 / 0.56 / 0.49 / 0.72 | 0.70 | 0/18
KSLQSQEYESRNKNSVA | HASTRED | QQYHRLPLS | -0.16 / -0.21 / 0.01 / -0.21 / -0.15 / 0.05 | -0.11 | 1/18 (3.08)
KVSQQKLYESRNKNSVA | DASTRES | QQYHRLPLS | -0.14 / -0.34 / -0.33 / -0.53 / -0.44 / -0.30 | -0.35 | 3/18 (3.75)
KASQAFLYESRNKNSVA | DANTRES | QQYHRLPLS | 0.35 / 0.14 / 0.57 / 0.23 / 0.56 / 1.07 | 0.49 | 0/18
KQSQSVLYESGNKNSVA | DASTRES | QQYHRLPLS | 0.29 / 0.34 / 0.14 / 0.02 / 0.07 / 0.32 | 0.20 | 3/18 (2.60)
KLSQSVLMESRNCNSVA | DASTRES | QQYHRLPLS | 0.59 / 0.26 / 0.33 / 0.31 / 0.33 / 0.38 | 0.37 | 1/18 (2.17)
KSSTSVKFESRNKNSVA | DASTRES | QQYHRLPLS | 0.32 / 0.33 / 0.20 / -0.08 / 0.30 / 0.45 | 0.25 | 1/18 (2.34)
KSSISGLYESRNKNSVA | AASTRES | QQYHRLPLS | 0.07 / -0.09 / 0.00 / -0.13 / 0.08 / 0.11 | 0.01 | 0/18
KSSISKLYESRNENSVA | EASTREQ | QQYHRLPLS | 1.13 / 1.04 / 0.59 / 0.51 / 0.58 / 0.95 | 0.80 | 1/18 (2.39)
KQSQSVLYEWRNKNSVA | NASTRES | QQYHRLPLS | -0.07 / -0.24 / -0.09 / -0.21 / 0.08 / -0.23 | -0.13 | 0/18
KFSQSVDYESRLKNSVA | NASTRES | QQYHRLPLS | 0.73 / 0.27 / 0.32 / 0.37 / 0.12 / 0.56 | 0.39 | 0/18
KLQQSVLYESRNKNSVA | HASLRED | QQYHRLPLS | -0.01 / -0.15 / -0.30 / -0.45 / -0.35 / -0.16 | -0.24 | 2/18 (3.36)
HLSDSVLYESRNKNSVA | NASTRES | QQYHRLPLA | 0.19 / -0.12 / -0.03 / -0.25 / -0.10 / 0.41 | 0.02 | 0/18
HSSESVLYESRNKNNVA | NASTRES | QQYHRLPLS | 0.24 / 0.22 / 0.17 / 0.18 / 0.16 / -0.12 | 0.14 | 1/18 (2.25)
KSQQSQEYESRNKNSVA | HASTRED | QQYHRLPLS | -0.04 / -0.05 / -0.17 / -0.22 / -0.37 / -0.02 | -0.14 | 1/18 (3.02)
KLRQSTLYESRNKNSVA | MASTRES | QQYHRLPLS | 0.91 / 0.63 / 0.67 / 0.86 / 1.06 / 0.89 | 0.84 | 0/18
KSSQSYPYESRNKNSVA | GASTRES | QQYHRLPLS | 0.48 / 0.41 / 0.59 / 0.21 / 0.85 / 0.92 | 0.58 | 0/18
KLSQSVLFEWRNKNSVA | DASTRES | QQYHRLPLS | -0.21 / -0.33 / -0.20 / -0.48 / -0.35 / -0.01 | -0.26 | 0/18
KSSISQLYESMNKNSVA | LGSTRES | QQYHRLPLS | nd / 1.22 / 0.75 / 0.34 / 1.43 / 1.28 | 1.00 | 2/18 (1.93)
KSSQSEKFESRNKNSVA | DASTRES | QQYHRLPLS | 0.21 / 0.30 / 0.02 / 0.04 / 0.06 / 0.39 | 0.17 | 0/18
KSSQSILYESGNKNSVA | HASTRES | QQYHRLPLS | 0.47 / 0.37 / 0.37 / 0.19 / 0.26 / 0.48 | 0.35 | 0/18
KQSQSVLYEMRNKNSVA | DASTRES | QQYHRLPLS | -0.33 / -0.33 / -0.35 / -0.08 / 0.08 / 0.13 | -0.15 | 0/18
HSSPSVLYESRNGNSVA | NASTREK | QQYHRLPLS | 0.29 / 0.30 / -0.02 / -0.06 / 0.02 / 0.06 | 0.10 | 1/18 (2.71)
KFSQSVLYESRTVNSVA | NASTRES | QQYHRLPLS | -0.04 / -0.07 / -0.44 / -0.50 / -0.36 / 0.02 | -0.23 | 0/18
KQSQAFLYESRNKNSVA | DASTRES | QQYHRLPLS | 0.26 / -0.06 / 0.00 / -0.11 / -0.09 / 0.12 | 0.02 | 1/18 (4.02)
KMSQSVLFESRNKNSVA | DASFRES | QQYHRLPLS | 0.03 / 0.17 / 0.01 / -0.15 / 0.02 / 0.11 | 0.03 | 2/18 (4.41)
KLQQQHLYESRNKNSVA | SASTREE | QQYHRLPLS | 0.00 / 0.25 / 0.24 / 0.14 / -0.02 / 0.22 | 0.14 | 1/18 (1.62)
HSSPSVLYESRNFNSVA | NASTRES | QQYHRLPLS | 0.46 / 0.26 / 0.34 / 0.21 / 0.21 / 0.50 | 0.33 | 2/18 (1.80)
KLRQSTLYESRNKNEVA | HASTRES | QQYHRLPLS | 0.87 / 0.85 / 0.70 / 0.39 / 0.40 / 0.96 | 0.69 | 0/18
KLSFSVLFESRNKNSVA | NASTRES | QQYHRLPLS | -0.12 / -0.26 / -0.18 / -0.62 / -0.48 / -0.52 | -0.37 | 0/18
KLDQSHLYESRNKNSVA | GASTRES | QQYHRLPLS | 0.91 / 0.88 / 1.30 / 0.80 / 1.09 / 0.89 | 0.98 | 3/18 (2.96)
KLQQQTLYESRNKNSVA | NASTREE | QQYHRLPLS | nd / nd / nd / nd / nd / nd | nd | 0/18
HSSPSVLYESRNDNSVA | NASTRES | QQYHRLPLS | -0.10 / -0.14 / 0.02 / -0.31 / 0.11 / 0.01 | -0.07 | 0/18
KVSQSWLYESRNKNSVA | EASTRQS | QQYHRLPLS | -0.37 / -0.27 / -0.42 / -0.53 / -0.25 / -0.23 | -0.34 | 0/18
KSSISPLYESRNKNSVA | AASTRES | QQYHRLPLS | 0.25 / 0.32 / -0.04 / 0.02 / -0.10 / 0.30 | 0.12 | 0/18
KSSISQLYESRNKNSVA | EASTREQ | QQYHRLPLS | 0.11 / 0.20 / 0.08 / 0.14 / -0.44 / 0.25 | 0.06 | 0/18
KSSASGLYESRMKNSVA | EASTRES | QQYHRLPLS | 0.00 / 0.19 / 0.07 / -0.21 / 0.10 / 0.21 | 0.06 | 1/18 (2.52)
KQSQSVLMESRNKNSVA | MASTRES | QQYHRLPLS | 0.60 / 0.65 / 1.06 / 0.93 / 0.73 / 1.16 | 0.85 | 2/18 (2.87)
KLYQSVLYESRDKNSVA | HASTRED | QQYHRLPLS | 0.44 / 0.27 / 0.54 / 0.44 / 0.24 / 0.65 | 0.43 | 2/18 (2.16)

For reference, 3 entries of the list once more:

CDR-L1 | CDR-L2 | CDR-L3 | replicates, log10 nM | log10 Kd (nM), mean | control signals
KLDQSHLYESRNKNSVA | GASTRES | QQYHRLPLS | 0.91 / 0.88 / 1.30 / 0.80 / 1.09 / 0.89 | 0.98 | 3/18 (2.96)
HSSPSTLYESRNKNSVA | NASTREE | QQYHRLPLS | 0.75 / 0.35 / 0.50 / 0.50 / 0.33 / 0.50 | 0.49 | 1/18 (2.77)
KQSQSVLYESGNKNSVA | DASTRES | QQYHRLPLS | 0.29 / 0.34 / 0.14 / 0.02 / 0.07 / 0.32 | 0.20 | 3/18 (2.60)

The parent sequence was in this pool as ten entries: three were never detected, three once, and four in most replicates, with averages from 0.34 to 2.37. Values of this round are not directly comparable with the first-round values of the same sequences. The authors averaged sequences with at least three values out of six and counted those with two or fewer as poor binders.